# Values quoted from earlier work, collected in patent publication US8975232B2, “Macrocyclic kinase inhibitors and uses thereof” (President and Fellows of Harvard College, priority 2010, dated 2015).
# System: protein kinases
# Details: judged by similar criteria; cited from earlier work
structure (smiles),measurement,value
CNC(=O)c1cc(Oc2ccc(NC(=O)Nc3ccc(Cl)c(C(F)(F)F)c3)cc2)ccn1 [sorafenib],selectivity score,0.10
